Data on 1 compound can be found in publication PMC4286029 (Inflammation Research, 2014).

Protein sequences, listed by entry. Tags and fused reporters are not part of them. Residues count along the entry.
UniProt P52333, 781-1124 limits assumed: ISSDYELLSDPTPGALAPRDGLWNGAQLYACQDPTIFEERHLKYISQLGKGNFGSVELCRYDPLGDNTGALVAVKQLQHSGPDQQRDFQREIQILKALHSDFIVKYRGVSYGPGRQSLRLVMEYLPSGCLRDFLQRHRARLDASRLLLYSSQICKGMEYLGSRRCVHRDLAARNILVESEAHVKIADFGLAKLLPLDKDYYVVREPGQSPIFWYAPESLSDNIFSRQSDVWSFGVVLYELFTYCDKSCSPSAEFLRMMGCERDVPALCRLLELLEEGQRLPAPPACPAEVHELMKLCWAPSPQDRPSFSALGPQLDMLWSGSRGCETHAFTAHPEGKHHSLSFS
UniProt P29597, 871-1187 limits assumed: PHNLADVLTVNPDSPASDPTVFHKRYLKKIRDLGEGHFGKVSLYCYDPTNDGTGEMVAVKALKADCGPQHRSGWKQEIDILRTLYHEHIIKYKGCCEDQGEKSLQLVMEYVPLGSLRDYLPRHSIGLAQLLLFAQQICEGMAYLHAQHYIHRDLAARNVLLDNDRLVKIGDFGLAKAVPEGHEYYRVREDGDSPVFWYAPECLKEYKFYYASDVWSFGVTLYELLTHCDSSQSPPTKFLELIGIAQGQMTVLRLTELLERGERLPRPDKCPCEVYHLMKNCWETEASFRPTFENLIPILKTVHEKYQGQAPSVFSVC
UniProt P23458, 850-1154 limits assumed: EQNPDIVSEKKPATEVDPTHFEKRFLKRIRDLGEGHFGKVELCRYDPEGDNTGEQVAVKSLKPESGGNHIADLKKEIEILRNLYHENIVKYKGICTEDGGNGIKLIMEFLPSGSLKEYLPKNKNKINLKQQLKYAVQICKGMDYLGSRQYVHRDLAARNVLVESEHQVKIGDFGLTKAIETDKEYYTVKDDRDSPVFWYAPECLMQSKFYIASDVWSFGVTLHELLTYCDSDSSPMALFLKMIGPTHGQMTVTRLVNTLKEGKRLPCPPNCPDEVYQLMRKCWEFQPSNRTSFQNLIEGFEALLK
UniProt O60674, 808-1132 limits assumed: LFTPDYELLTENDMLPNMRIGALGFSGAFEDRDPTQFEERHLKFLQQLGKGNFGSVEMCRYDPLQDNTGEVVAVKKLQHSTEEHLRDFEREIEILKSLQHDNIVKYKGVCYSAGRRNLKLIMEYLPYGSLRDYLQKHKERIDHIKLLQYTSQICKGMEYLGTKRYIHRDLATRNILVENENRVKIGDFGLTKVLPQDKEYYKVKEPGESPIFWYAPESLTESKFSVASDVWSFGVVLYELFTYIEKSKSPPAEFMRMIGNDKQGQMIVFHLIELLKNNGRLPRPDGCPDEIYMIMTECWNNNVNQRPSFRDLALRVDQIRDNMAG

The target of test [1] is T1, human JAK3 (Homo sapiens, UniProt P52333).
The target in test [2] is T1, human JAK3. Put plainly: biochemical.
Test [3] concerns the target T2, human Tyk2 (Homo sapiens, UniProt P29597). The test can be described thus: biochemical. Particulars: Tyk2, mean ± SEM, three experiments.
Test [4] addresses T3, human JAK1 (Homo sapiens, UniProt P23458). Conditions: Lineweaver–Burk plots.
The target of test [5] is T2, human Tyk2. Conditions: Lineweaver–Burk plots.
Test [6] concerns the target T3, human JAK1. The test can be described thus: biochemical. Conditions: JAK1, mean ± SEM, three experiments.
The next test has as its target human JAK2 (Homo sapiens, UniProt O60674).
The subject of another test is human B cells. The test can be described thus: cells. Particulars: B-cell, 72 h, read-out: IC50, IL-21 plus anti-CD40 induced B cell proliferation.

For orientation: Ki means the equilibrium dissociation constant of an inhibitor or competing ligand from its target. Lower therefore signals tighter binding. In the case of `C[C@H]1CN(C(=O)CC#N)[C@]12CCN(c1ncnc3[nH]ccc13)C2` [JTE-052], on human JAK3 [1], the “inhibition mode, JAK3” value was “competitive with ATP”. The inhibition constant (Ki) is 5.5 ± 0.3 nM on human JAK3 [2]; 14 ± 1 nM at human Tyk2 [3] (Ki); 12.6 nM at human Tyk2 [3] (pKi); 2.1 ± 0.3 nM on human JAK1 [6] (Ki); 2 nM on human JAK1 [6] (pKi). The “inhibition mode, JAK1” value against human JAK1 [4] was “competitive with ATP”. Further, the “inhibition mode, Tyk2” value at human Tyk2 [5] was “competitive with ATP”. Also, the “inhibition mode, JAK2” value on human JAK2 is on record as “competitive with ATP”. Also, the IC50 in the test with human B cells was determined as 49 ± 6 nM.
